# System: silkworm
# Assay: Quantity of various dyes in sericin, fibroin and gland content of dye-fed silkworms
# Settings: FIG. 12, result in words
substance,measurement,value
rhodamine 116,Amount of dye present in silk (sericin and fibroin) and silkworm,substantial amounts in both sericin and fibroin
same,Distribution of dye between silk sericin and fibroin,more in silk sericin than fibroin

# — patent US20120039813A1, “INTRINSICALLY COLORED, LUMINESCENT SILK FIBROIN AND A METHOD OF PRODUCING THE SAME” (priority 2009, published 2012)
